Source: patent US4843074A

System: carbachol-induced diarrhea
Assay: Inhibition of carbachol-induced diarrhea in mice
Details: male CF1 mice, i.p., carbachol i.p. 30 minutes after drug

## CC1CN(CC(O)(C(=O)OC2CN3CCC2CC3)c2ccccc2)CC(C)O1 (stereo not shown)
  Antag. Carbachol-ind. diarrhea, mice, ip, ED50: 32.1 mg/lg
